“And” between values parts separate entries of the source, which are not always exact repeats. Equal values may be shown once.
Experiments:
Type in all cases: biochemical
Settings in all cases: 10µM
[1] = molecular target: T1, STK32B/YANK2 (Homo sapiens, UniProt Q9NY57); assay: HotSpot kinase assay
T1 construct: purchased Reaction Biology Corporation

Amino acid sequences for entries named in this document (tags omitted). A change or cut given only in a name is not applied to a line headed by its entry. Residues count along the entry.
UniProt P51451: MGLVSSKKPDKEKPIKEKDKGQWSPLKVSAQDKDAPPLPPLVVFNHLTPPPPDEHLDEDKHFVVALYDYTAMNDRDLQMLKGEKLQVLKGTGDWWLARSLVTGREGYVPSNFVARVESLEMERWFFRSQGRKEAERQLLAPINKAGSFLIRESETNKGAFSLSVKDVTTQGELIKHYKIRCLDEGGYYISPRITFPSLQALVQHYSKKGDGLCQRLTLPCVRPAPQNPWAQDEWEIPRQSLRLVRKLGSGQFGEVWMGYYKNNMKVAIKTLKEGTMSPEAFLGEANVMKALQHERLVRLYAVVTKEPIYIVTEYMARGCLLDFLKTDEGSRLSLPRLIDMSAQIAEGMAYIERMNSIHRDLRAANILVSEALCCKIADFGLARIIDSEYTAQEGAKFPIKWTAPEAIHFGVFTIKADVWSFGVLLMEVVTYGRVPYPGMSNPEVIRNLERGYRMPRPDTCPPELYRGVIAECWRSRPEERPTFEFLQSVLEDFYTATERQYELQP
UniProt Q5S007: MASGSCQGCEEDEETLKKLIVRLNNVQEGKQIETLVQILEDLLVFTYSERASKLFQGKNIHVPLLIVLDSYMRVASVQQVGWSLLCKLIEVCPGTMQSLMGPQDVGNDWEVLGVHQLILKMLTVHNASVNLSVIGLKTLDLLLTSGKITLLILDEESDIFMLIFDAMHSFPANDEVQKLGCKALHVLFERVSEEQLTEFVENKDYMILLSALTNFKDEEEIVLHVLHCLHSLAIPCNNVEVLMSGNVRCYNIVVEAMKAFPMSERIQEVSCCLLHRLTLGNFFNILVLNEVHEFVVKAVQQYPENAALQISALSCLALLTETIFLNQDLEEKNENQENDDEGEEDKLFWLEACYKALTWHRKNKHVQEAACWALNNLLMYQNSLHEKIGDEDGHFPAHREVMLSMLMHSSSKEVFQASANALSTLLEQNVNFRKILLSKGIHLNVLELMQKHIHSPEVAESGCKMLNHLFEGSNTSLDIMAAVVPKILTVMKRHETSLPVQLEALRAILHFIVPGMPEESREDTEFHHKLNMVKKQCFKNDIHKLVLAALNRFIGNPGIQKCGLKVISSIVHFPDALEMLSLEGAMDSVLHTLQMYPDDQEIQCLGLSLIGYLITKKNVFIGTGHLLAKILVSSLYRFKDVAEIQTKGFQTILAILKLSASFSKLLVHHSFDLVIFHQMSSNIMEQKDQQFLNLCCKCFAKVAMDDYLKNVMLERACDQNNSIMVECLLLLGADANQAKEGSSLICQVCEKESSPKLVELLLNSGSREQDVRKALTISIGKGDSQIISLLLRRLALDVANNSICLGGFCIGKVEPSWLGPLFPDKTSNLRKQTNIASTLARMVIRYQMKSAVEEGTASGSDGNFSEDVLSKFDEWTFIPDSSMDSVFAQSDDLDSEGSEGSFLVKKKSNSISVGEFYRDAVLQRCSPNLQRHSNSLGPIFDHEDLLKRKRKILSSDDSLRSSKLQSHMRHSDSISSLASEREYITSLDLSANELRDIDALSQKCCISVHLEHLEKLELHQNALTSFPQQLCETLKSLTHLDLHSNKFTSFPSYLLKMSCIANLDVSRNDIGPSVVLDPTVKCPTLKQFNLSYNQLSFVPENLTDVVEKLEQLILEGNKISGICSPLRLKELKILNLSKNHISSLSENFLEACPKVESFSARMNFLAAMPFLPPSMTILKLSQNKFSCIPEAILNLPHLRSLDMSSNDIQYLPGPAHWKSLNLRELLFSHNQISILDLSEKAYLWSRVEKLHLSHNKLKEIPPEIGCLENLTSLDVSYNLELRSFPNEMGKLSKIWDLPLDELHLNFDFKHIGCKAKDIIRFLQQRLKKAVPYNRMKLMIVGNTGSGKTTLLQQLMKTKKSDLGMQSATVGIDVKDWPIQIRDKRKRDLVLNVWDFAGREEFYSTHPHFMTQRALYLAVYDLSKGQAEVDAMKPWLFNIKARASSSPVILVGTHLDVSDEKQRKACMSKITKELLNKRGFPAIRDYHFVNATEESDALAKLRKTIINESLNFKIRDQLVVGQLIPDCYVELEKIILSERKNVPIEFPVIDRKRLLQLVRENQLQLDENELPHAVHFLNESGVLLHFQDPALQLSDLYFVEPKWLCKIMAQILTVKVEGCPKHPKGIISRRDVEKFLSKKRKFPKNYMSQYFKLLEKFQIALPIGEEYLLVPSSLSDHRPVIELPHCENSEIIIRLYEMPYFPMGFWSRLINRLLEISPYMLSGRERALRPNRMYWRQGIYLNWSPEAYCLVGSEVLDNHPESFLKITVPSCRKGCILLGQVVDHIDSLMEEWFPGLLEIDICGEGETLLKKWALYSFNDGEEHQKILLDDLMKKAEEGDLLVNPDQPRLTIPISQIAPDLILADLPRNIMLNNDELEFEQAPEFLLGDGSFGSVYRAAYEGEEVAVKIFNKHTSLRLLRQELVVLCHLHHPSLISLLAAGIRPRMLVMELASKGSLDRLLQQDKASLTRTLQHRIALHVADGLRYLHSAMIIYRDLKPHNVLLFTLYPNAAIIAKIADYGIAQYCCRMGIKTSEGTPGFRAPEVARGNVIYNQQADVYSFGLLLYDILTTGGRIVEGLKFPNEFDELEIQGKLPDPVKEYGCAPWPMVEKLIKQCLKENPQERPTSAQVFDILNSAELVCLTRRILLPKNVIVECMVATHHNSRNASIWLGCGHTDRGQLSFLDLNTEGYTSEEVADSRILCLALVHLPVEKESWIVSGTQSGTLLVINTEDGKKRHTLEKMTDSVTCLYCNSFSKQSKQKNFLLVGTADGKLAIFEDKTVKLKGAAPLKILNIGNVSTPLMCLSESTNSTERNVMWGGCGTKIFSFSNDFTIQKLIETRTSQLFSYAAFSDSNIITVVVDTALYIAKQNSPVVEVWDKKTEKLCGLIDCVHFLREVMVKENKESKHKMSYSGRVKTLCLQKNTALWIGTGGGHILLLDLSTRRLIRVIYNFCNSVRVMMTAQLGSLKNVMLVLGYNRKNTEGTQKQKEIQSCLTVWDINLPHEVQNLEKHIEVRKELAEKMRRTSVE
UniProt P54760, 16-987: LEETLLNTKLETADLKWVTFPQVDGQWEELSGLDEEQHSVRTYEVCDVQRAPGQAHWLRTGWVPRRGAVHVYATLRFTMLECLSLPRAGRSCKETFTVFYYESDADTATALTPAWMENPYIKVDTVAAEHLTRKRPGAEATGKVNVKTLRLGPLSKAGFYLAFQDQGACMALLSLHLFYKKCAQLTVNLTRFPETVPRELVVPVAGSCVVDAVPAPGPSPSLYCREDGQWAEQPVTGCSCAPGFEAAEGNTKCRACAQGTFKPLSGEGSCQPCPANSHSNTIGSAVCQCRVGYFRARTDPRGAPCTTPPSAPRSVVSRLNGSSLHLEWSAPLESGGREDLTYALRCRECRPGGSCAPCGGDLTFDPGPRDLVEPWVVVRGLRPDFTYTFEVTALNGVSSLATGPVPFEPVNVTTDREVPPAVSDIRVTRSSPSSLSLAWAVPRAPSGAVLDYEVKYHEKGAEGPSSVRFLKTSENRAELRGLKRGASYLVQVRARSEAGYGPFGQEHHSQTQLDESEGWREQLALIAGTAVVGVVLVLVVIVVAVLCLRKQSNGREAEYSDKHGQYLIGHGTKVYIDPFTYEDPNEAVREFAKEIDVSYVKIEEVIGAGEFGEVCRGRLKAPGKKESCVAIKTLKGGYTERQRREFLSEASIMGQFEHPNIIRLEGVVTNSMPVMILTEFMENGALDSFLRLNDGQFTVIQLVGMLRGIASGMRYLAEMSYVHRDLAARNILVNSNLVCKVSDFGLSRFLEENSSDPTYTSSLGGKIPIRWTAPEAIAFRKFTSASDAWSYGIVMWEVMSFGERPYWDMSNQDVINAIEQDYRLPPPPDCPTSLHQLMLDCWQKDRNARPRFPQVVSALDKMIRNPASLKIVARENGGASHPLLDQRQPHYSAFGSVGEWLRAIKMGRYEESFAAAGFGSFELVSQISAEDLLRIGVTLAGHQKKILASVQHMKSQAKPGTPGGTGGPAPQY
UniProt Q96PN8: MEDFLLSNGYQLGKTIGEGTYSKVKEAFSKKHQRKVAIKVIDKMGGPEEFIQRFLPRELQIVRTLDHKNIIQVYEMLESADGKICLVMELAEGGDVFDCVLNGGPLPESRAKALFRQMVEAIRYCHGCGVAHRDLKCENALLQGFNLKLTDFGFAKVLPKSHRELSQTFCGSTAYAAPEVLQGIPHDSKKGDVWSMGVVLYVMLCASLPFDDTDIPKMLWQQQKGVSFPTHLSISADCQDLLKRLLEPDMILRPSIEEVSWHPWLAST
UniProt P14616, 27-1297: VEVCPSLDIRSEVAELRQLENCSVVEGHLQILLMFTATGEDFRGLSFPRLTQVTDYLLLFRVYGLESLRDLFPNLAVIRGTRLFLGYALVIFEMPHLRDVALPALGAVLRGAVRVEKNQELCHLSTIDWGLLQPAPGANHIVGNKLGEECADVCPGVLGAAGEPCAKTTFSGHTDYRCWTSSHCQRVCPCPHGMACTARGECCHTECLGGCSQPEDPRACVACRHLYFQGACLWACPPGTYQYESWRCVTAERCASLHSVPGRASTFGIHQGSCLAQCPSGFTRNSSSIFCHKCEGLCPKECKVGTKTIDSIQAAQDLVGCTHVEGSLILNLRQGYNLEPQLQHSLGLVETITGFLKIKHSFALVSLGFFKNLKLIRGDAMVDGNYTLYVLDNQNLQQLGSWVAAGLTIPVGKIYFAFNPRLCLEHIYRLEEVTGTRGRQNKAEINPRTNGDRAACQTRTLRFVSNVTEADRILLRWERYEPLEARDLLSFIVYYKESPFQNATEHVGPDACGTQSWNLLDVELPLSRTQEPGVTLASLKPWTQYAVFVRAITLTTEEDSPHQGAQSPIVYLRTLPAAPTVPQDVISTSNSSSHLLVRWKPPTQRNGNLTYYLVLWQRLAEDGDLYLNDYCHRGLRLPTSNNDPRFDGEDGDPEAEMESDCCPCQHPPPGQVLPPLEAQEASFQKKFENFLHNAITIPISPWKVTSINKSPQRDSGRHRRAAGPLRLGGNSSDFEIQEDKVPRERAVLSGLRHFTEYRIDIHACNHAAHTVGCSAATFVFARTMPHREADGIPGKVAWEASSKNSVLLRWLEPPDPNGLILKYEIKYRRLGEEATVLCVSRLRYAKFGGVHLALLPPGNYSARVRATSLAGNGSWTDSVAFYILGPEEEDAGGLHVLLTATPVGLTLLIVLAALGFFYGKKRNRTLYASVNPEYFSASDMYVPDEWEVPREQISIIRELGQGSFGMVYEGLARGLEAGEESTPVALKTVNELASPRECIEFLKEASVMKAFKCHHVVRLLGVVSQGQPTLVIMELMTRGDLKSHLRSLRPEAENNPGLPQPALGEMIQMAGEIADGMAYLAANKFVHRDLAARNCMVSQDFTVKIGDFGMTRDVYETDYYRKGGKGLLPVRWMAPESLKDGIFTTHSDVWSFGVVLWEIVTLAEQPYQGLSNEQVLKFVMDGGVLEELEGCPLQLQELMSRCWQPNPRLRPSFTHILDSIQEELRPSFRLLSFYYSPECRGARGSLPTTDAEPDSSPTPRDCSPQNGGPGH
UniProt Q5TCX8: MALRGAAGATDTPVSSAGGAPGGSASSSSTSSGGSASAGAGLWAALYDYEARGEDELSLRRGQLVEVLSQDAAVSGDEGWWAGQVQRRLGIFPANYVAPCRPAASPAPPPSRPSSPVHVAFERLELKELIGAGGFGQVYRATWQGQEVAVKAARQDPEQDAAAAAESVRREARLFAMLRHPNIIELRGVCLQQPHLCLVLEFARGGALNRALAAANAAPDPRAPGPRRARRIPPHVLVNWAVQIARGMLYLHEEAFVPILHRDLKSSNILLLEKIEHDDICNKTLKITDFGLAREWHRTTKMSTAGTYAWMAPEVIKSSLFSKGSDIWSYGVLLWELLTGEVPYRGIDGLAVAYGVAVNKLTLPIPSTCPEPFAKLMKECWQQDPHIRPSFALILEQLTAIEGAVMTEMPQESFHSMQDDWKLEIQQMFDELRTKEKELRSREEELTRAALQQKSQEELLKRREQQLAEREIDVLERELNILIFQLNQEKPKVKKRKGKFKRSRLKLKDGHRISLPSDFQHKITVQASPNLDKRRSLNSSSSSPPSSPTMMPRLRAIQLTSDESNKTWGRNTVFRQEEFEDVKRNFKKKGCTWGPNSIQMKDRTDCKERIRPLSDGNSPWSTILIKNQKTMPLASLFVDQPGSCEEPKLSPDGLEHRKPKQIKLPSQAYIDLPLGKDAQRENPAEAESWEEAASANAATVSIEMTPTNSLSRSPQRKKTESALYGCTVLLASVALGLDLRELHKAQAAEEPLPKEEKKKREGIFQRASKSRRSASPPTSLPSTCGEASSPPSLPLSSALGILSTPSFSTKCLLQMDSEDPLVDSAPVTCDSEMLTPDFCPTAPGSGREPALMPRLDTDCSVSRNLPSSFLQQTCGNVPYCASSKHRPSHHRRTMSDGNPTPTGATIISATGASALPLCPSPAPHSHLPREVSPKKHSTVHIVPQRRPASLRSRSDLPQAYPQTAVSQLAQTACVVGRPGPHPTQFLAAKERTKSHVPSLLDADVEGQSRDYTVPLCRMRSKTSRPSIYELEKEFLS

[2] = molecular target: T2, GLK/MAP4K3 (Homo sapiens, UniProt Q8IVH8); assay: HotSpot kinase assay
T2 construct: purchased Reaction Biology Corporation

[3] = molecular target: T3, PKCa (Homo sapiens, UniProt P17252); assay: HotSpot kinase assay
T3 construct: purchased Reaction Biology Corporation

[4] = molecular target: T4, GRK7 (Homo sapiens, UniProt Q8WTQ7); assay: HotSpot kinase assay
T4 construct: purchased Reaction Biology Corporation

[5] = molecular target: T5, BLK (Homo sapiens, UniProt P51451); assay: HotSpot kinase assay
T5 construct: purchased Reaction Biology Corporation

[6] = molecular target: T6, PKG1b (Homo sapiens, UniProt Q13976); assay: HotSpot kinase assay
T6 construct: purchased Reaction Biology Corporation

[7] = molecular target: T7, Aurora A (Homo sapiens, UniProt O14965); assay: HotSpot kinase assay
T7 construct: purchased Reaction Biology Corporation

[8] = molecular target: T8, NEK11 (Homo sapiens, UniProt Q8NG66); assay: HotSpot kinase assay
T8 construct: purchased Reaction Biology Corporation

[9] = molecular target: T9, SYK (Homo sapiens, UniProt P43405); assay: HotSpot kinase assay
T9 construct: purchased Reaction Biology Corporation

[10] = molecular target: T10, ALK6/BMPR1B (Homo sapiens, UniProt O00238); assay: HotSpot kinase assay
T10 construct: purchased Reaction Biology Corporation

[11] = molecular target: T11, ERN1/IRE1 (Homo sapiens, UniProt O75460); assay: HotSpot kinase assay
T11 construct: purchased Reaction Biology Corporation

[12] = molecular target: T12, PYK2 (Homo sapiens, UniProt Q14289); assay: HotSpot kinase assay
T12 construct: purchased Reaction Biology Corporation

[13] = molecular target: T13, LIMK1 (Homo sapiens, UniProt P53667); assay: HotSpot kinase assay
T13 construct: purchased Reaction Biology Corporation

[14] = molecular target: T14, EIF2AK4 (Homo sapiens, UniProt Q9P2K8); assay: HotSpot kinase assay
T14 construct: purchased Reaction Biology Corporation

[15] = molecular target: T15, FGFR4 (Homo sapiens, UniProt P22455); assay: HotSpot kinase assay
T15 construct: purchased Reaction Biology Corporation

[16] = molecular target: T16, ERK5/MAPK7 (Homo sapiens, UniProt Q13164); assay: HotSpot kinase assay
T16 construct: purchased Reaction Biology Corporation

[17] = molecular target: T17, RAF1 (Homo sapiens, UniProt P04049); assay: HotSpot kinase assay
T17 construct: purchased Reaction Biology Corporation

[18] = molecular target: T18, LRRK2 (Homo sapiens, UniProt Q5S007); assay: HotSpot kinase assay
T18 construct: purchased Reaction Biology Corporation

[19] = molecular target: T19, PKCeta (Homo sapiens, UniProt P24723); assay: HotSpot kinase assay
T19 construct: purchased Reaction Biology Corporation

[20] = molecular target: T20, EPHB3 (Homo sapiens, UniProt P54753); assay: HotSpot kinase assay
T20 construct: purchased Reaction Biology Corporation

[21] = molecular target: T21, EPHB4 (Homo sapiens, UniProt P54760); assay: HotSpot kinase assay
T21 construct: purchased Reaction Biology Corporation

[22] = molecular target: T22, MSK2/RPS6KA4 (Homo sapiens, UniProt O75676); assay: HotSpot kinase assay
T22 construct: purchased Reaction Biology Corporation

[23] = molecular target: T23, PKCnu/PRKD3 (Homo sapiens, UniProt O94806); assay: HotSpot kinase assay
T23 construct: purchased Reaction Biology Corporation

[24] = molecular target: T24, TNIK (Homo sapiens, UniProt Q9UKE5); assay: HotSpot kinase assay
T24 construct: purchased Reaction Biology Corporation

[25] = molecular target: T25, TAK1 (Homo sapiens, UniProt O43318); assay: HotSpot kinase assay
T25 construct: purchased Reaction Biology Corporation

[26] = molecular target: T26, MYO3b (Homo sapiens, UniProt Q8WXR4); assay: HotSpot kinase assay
T26 construct: purchased Reaction Biology Corporation

[27] = molecular target: T27, TSSK3/STK22C (Homo sapiens, UniProt Q96PN8); assay: HotSpot kinase assay
T27 construct: purchased Reaction Biology Corporation

[28] = molecular target: T28, ALK5/TGFBR1 (Homo sapiens, UniProt P36897); assay: HotSpot kinase assay
T28 construct: purchased Reaction Biology Corporation

[29] = molecular target: T29, AMPK(A2/B1/G1) (Homo sapiens, UniProt P54646); assay: HotSpot kinase assay
T29 construct: purchased Reaction Biology Corporation

[30] = molecular target: T30, IRR/INSRR (Homo sapiens, UniProt P14616); assay: HotSpot kinase assay
T30 construct: purchased Reaction Biology Corporation

[31] = molecular target: T31, NEK9 (Homo sapiens, UniProt Q8TD19); assay: HotSpot kinase assay
T31 construct: purchased Reaction Biology Corporation

[32] = molecular target: T32, BMX/ETK (Homo sapiens, UniProt P51813); assay: HotSpot kinase assay
T32 construct: purchased Reaction Biology Corporation

[33] = molecular target: T33, ALK4/ACVR1B (Homo sapiens, UniProt P36896); assay: HotSpot kinase assay
T33 construct: purchased Reaction Biology Corporation

[34] = molecular target: T34, CLK2 (Homo sapiens, UniProt P49760); assay: HotSpot kinase assay
T34 construct: purchased Reaction Biology Corporation

[35] = molecular target: T35, SGK2 (Homo sapiens, UniProt Q9HBY8); assay: HotSpot kinase assay
T35 construct: purchased Reaction Biology Corporation

[36] = molecular target: T36, SGK3/SGKL (Homo sapiens, UniProt Q96BR1); assay: HotSpot kinase assay
T36 construct: purchased Reaction Biology Corporation

[37] = molecular target: T37, CK1g1 (Homo sapiens, UniProt Q9HCP0); assay: HotSpot kinase assay
T37 construct: purchased Reaction Biology Corporation

[38] = molecular target: T38, NIM1 (Homo sapiens, UniProt Q8IY84); assay: HotSpot kinase assay
T38 construct: purchased Reaction Biology Corporation

[39] = molecular target: T39, P38a/MAPK14 (Homo sapiens, UniProt Q16539); assay: HotSpot kinase assay
T39 construct: purchased Reaction Biology Corporation

[40] = molecular target: T40, COT1/MAP3K8 (Homo sapiens, UniProt P41279); assay: HotSpot kinase assay
T40 construct: purchased Reaction Biology Corporation

[41] = molecular target: T41, PKCd (Homo sapiens, UniProt Q05655)
T41 construct: purchased Reaction Biology Corporation

[42] = molecular target: T42, MLK4 (Homo sapiens, UniProt Q5TCX8); assay: HotSpot kinase assay
T42 construct: purchased Reaction Biology Corporation

[43] = molecular target: T43, MAPKAPK2 (Homo sapiens, UniProt P49137); assay: HotSpot kinase assay
T43 construct: purchased Reaction Biology Corporation

CO[C@@H]1[C@H](N(C)C(=O)CCC(=O)NCc2cn(CCCS(=O)(=O)O)nn2)C[C@H]2O[C@]1(C)n1c3ccccc3c3c4c(c5c6ccccc6n2c5c31)C(=O)NC4 [CIMSS]
% Enzyme Activity (relative to DMSO controls) [1]: 0.91%
% Enzyme Activity (relative to DMSO controls) [2]: 0.93%
% Enzyme Activity (relative to DMSO controls) [3]: 0.84%
% Enzyme Activity (relative to DMSO controls) [4]: 6.73%
% Enzyme Activity (relative to DMSO controls) [5]: 0.29%
% Enzyme Activity (relative to DMSO controls) [6]: 12.45%
% Enzyme Activity (relative to DMSO controls) [7]: 1.08%
% Enzyme Activity (relative to DMSO controls) [8]: 49.43%
% Enzyme Activity (relative to DMSO controls) [9]: 0.78%
% Enzyme Activity (relative to DMSO controls) [10]: 87.18%
% Enzyme Activity (relative to DMSO controls) [11]: 8.17%
% Enzyme Activity (relative to DMSO controls) [12]: 2.27%
% Enzyme Activity (relative to DMSO controls) [13]: 0.77%
% Enzyme Activity (relative to DMSO controls) [14]: 9.39%
% Enzyme Activity (relative to DMSO controls) [15]: 4.30%
% Enzyme Activity (relative to DMSO controls) [16]: 81.71%
% Enzyme Activity (relative to DMSO controls) [17]: 109.90%
% Enzyme Activity (relative to DMSO controls) [18]: 1.00%
% Enzyme Activity (relative to DMSO controls) [19]: 1.78% and 0.42%
% Enzyme Activity (relative to DMSO controls) [20]: 28.88%
% Enzyme Activity (relative to DMSO controls) [21]: 18.92%
% Enzyme Activity (relative to DMSO controls) [22]: 1.99%
% Enzyme Activity (relative to DMSO controls) [23]: 11.12%
% Enzyme Activity (relative to DMSO controls) [24]: 1.13%
% Enzyme Activity (relative to DMSO controls) [25]: 6.81%
% Enzyme Activity (relative to DMSO controls) [26]: 5.12%
% Enzyme Activity (relative to DMSO controls) [27]: 61.46%
% Enzyme Activity (relative to DMSO controls) [28]: 85.77%
% Enzyme Activity (relative to DMSO controls) [29]: 0.64%
% Enzyme Activity (relative to DMSO controls) [30]: 3.78%
% Enzyme Activity (relative to DMSO controls) [31]: 2.70%
% Enzyme Activity (relative to DMSO controls) [32]: 1.32%
% Enzyme Activity (relative to DMSO controls) [33]: 57.94%
% Enzyme Activity (relative to DMSO controls) [34]: 3.10%
% Enzyme Activity (relative to DMSO controls) [35]: 22.07%
% Enzyme Activity (relative to DMSO controls) [36]: 58.53%
% Enzyme Activity (relative to DMSO controls) [37]: 92.37%
% Enzyme Activity (relative to DMSO controls) [38]: 46.56%
% Enzyme Activity (relative to DMSO controls) [39]: 100.67%
% Enzyme Activity (relative to DMSO controls) [40]: 103.54%
% Enzyme Activity (relative to DMSO controls) [41]: 7.89%
% Enzyme Activity (relative to DMSO controls) [42]: 0.85%
% Enzyme Activity (relative to DMSO controls) [43]: 67.54%

— article PMC9569420 (Communications Biology, 2022)
